Measured affinities in a library of Ab-14 light chain variants

The target is the same throughout: PDVDLGDISGINAS, from the HR2 region of SARS-CoV-2 spike.

Parent scFv Ab-14: VH joined to VL by a (GGGGS)3 linker. Changes lie in the light chain CDRs alone.
VH: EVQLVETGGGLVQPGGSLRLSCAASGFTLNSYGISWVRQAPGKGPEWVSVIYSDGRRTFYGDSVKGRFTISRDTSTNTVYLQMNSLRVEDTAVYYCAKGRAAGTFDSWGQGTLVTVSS
VL: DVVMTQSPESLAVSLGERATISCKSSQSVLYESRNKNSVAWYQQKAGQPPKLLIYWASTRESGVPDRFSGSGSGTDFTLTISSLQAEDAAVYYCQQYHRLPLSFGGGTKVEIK

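The parent was found by panning a naive human phage display library on the peptide. These sequences belong to a second round, designed from the earlier measurements on random variants of the parent. Several design methods are mixed in this list. AlphaSeq pools MATa yeast showing the antibodies with MATalpha yeast showing the peptide. The frequency of each diploid, read from paired DNA barcodes, reflects how well the two displayed proteins bind. Each replicate has its own calibration line, from reference interactions of the BCL2 family. The assay was run in six technical replicates.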

The parent's light chain CDRs are KSSQSVLYESRNKNSVA, WASTRES, QQYHRLPLS; each variant's own CDRs replace them letter for letter.
This list holds designs with more than six substitutions.
Numbers give log10(Kd / nM), so 0 is 1 nM and 3 is 1 µM. Smaller is tighter.
A mean of the replicates is given; it leaves out those without a signal.
Where no diploid with the target was found in any replicate, the entry reads "nd": below detection, most likely a poor binder, though not proof of it.
A sequence measured in both rounds can read differently, since the two assays cover different ranges.

The variant KWQQSVDYESRNKNSVA / NGQTREA / QQYHRLPLS showed -0.44 (6 of 6 replicates). The variant RYQMDDNSGKGMRNNVA / DGAEVRM / QQYARLPLW gave 2.00 (2 of 6 replicates). The variant MVNGHLVHQANRDNNIA / EAQMVAA / QDYHRLPLI showed 1.37 (6 of 6 replicates). With KLTQTMRFETKNKNNIA / EVAERLK / QQYFRLPLA the result was 0.07 (6 of 6 replicates). The variant TIGQSVHETSKIKNSVA / HASTRED / QQYDRLPLS showed 0.07 (6 of 6 replicates).

The variant KLSESAHFESRKKNSVA / ENSTREE / QQYYHLPLS gave 1.58 (6 of 6 replicates). With TISELYNQAIGMRNNVA / NNQTRED / QQYDRLPLS the result was nd (0 of 6 replicates). The variant RLNVFQYAITGDNYAIA / NAREKLM / QQYMRLPLT showed -0.77 (4 of 6 replicates). The variant KISQFYEMESRNKNSVA / SASTRMS / QQYHRLPLS gave -0.23 (6 of 6 replicates). With HVSSMDMTDGGIINSVA / GDKLLER / QQYMRLPLS the result was 0.51 (6 of 6 replicates).

For MFSQLFYTGSRTKNAVA / QASTREN / QQYHRLPLS, the assay gave 1.49 (6 of 6 replicates). With NMEGVEFEMAQHGNSVA / GVDLREA / QQYFRLPLH the result was 0.72 (6 of 6 replicates). The variant KYSFSEGYESRNKNSVA / EASCREE / QQYHRLPLS gave 0.46 (6 of 6 replicates). For KMQGSVMMQSRNDNSVA / DASTREE / QQYHRLPLS, the assay gave -0.06 (6 of 6 replicates). The variant TLVQSVMGGSRTANSVA / NAETRYD / QHYHRLPLS showed 1.19 (5 of 6 replicates).

The variant KVSQKDPMGSRNKNSVA / HASLRED / QQYHRLPLS gave 0.42 (6 of 6 replicates). With TLGYQPTEMRDNKHAVA / DDEQRDR / QQYMRLPLS the result was 0.24 (6 of 6 replicates). The variant TISQSAMQESHNKNSVA / DLSVRGS / QQYDRLPLS gave nd (0 of 6 replicates). With KVSGLGLYGQRNKNSVA / EASTRED / QQYHRLPLS the result was -0.16 (6 of 6 replicates). The variant KSAQGVLYESRNKNSVA / WVSTREP / TYYHRLPTS gave nd (0 of 6 replicates).

With KCEQWQDYESRNKNSVA / QASTREQ / QQYHRLPLS the result was 1.53 (6 of 6 replicates). With KFSQMVNTMSVSKSAVA / EMSTRPE / QQYNRLPLS the result was 0.14 (6 of 6 replicates). With TVSQVHGMLEHNKNSVA / DMNTRGS / QQYDRLPLS the result was -0.66 (6 of 6 replicates). With KITFQMQDSNAMDNSIA / QTNVYHD / QQYGRLPLD the result was 1.75 (4 of 6 replicates). For KLDQSDLMESRNWNSVA / QASTREI / QQYHRLPLS, the assay gave -0.20 (6 of 6 replicates).

The variant MVNGIMDHLSKNTNNVA / ETSTRGS / QQYERLPLS gave -0.41 (6 of 6 replicates). For KISGSYLYESRNWNAVA / EASQREQ / QQYHRLPLS, the assay gave 0.19 (6 of 6 replicates). For TIGQSTLMESRNRNNVA / QMSTREK / QQYDRLPLS, the assay gave 0.02 (6 of 6 replicates). The variant MLSEVLHMLGVAKNSIA / DLVIRAN / QQYHRLPLM gave nd (0 of 6 replicates). With KIELSNSVSLRGTRAIA / QGSTRAH / QQYHRLPLT the result was 0.87 (6 of 6 replicates).

The variant KLAQSVAMTSHGINSVA / QSTTREE / QQYNRLPLS showed -0.26 (6 of 6 replicates). With KFFQSWLYEQRNVNSVA / NASQRLD / QQYHRLPLS the result was 0.12 (6 of 6 replicates). The variant MMSSLMGYESRHINNVA / QTTTREE / QQYDRLPLI showed 0.40 (6 of 6 replicates).

Again, the first 3 entries without any signal:

{"CDR-L1": "TISELYNQAIGMRNNVA", "CDR-L2": "NNQTRED", "CDR-L3": "QQYDRLPLS", "log10 Kd (nM), mean": "nd", "seen in": "0 of 6"}
{"CDR-L1": "TISQSAMQESHNKNSVA", "CDR-L2": "DLSVRGS", "CDR-L3": "QQYDRLPLS", "log10 Kd (nM), mean": "nd", "seen in": "0 of 6"}
{"CDR-L1": "KSAQGVLYESRNKNSVA", "CDR-L2": "WVSTREP", "CDR-L3": "TYYHRLPTS", "log10 Kd (nM), mean": "nd", "seen in": "0 of 6"}

Of ten entries with the parent sequence, four were seen in most replicates (averages 0.34 to 2.37), three in one and three in none, so single entries are noisy.
The authors averaged sequences with at least three values out of six and counted those with two or fewer as poor binders.
Three control strains display no target. For all light chain designs, 4% of the pairings with them gave a signal, with a median of 2.64 and one signal in twenty below 1.59, so weak values seen in few replicates may be background.

From the AlphaSeq antibody data of Li et al. 2023 (doi:10.1038/s41467-023-39022-2), copy in the FLAb collection.